For data set [1] the following is noted: in vivo.
A short description of data set [2]: in vivo.

Like-named read-outs stand apart in the source and are kept apart here.

One may read the LD50 as the dose expected to kill half of the subjects tested. High values mean lower toxicity, low ones greater toxicity. In the case of `COCC(O)Cn1ccnc1[N+](=O)[O-]` (centres unmarked) [Misonidazole, 1-(2-Nitro-1-imidazolyl)-3-methoxy-2-propanol], the median lethal dose (LD50) in data set [1] and in data set [2] was 1500 mg/kg in each case.

The values above are taken from patent publication US4927941A, “Fluorine-containing nitroazole derivatives and radiosensitizer comprising the same” (Yasunori Nishijima & Daikin Industries Ltd., priority 1987, dated 1990).
